In PubChem BioAssay AID489030 (Sanford-Burnham Center for Chemical Genomics, 2010):
The entries are a selection whose mix differs from that of the whole data set. Active and inactive are the calls of the source. How the source made its calls: active means inhibition of at least 40% at 20 µM; inactive means the rest.

Protein sequences, listed by entry. Tags and fused reporters are not part of them.
UniProt O14727, whole entry: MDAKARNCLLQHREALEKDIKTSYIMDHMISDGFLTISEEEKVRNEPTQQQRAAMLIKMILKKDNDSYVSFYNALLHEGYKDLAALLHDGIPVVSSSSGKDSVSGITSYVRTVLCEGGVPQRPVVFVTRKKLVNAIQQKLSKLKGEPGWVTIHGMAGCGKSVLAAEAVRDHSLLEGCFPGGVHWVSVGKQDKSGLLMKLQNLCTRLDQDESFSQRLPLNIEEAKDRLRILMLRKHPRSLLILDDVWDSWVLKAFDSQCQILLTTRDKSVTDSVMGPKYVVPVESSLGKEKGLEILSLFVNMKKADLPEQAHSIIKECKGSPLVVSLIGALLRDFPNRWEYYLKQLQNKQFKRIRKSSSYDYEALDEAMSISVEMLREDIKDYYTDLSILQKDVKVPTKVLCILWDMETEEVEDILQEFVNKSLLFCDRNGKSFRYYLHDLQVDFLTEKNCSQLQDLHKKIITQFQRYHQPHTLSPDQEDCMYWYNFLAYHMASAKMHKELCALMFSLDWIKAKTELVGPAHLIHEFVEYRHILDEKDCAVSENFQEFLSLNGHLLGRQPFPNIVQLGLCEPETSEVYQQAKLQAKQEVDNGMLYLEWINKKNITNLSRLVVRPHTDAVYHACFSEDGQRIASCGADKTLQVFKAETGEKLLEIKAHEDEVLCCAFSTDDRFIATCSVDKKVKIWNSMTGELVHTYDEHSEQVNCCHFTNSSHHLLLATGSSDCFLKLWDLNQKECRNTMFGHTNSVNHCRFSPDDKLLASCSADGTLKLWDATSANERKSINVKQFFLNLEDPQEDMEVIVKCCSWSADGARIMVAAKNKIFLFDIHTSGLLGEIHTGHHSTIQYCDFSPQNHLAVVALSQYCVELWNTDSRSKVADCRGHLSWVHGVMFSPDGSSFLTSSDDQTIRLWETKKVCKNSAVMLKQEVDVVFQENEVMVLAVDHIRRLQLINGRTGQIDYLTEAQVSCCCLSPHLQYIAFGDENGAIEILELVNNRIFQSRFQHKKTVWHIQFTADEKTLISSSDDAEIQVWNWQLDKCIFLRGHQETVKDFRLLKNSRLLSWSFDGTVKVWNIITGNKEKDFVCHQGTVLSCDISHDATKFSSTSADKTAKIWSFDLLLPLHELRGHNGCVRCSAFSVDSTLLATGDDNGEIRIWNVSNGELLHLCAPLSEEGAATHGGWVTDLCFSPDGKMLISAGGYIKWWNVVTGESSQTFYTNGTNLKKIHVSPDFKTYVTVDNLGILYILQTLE

Target: Apoptotic protease-activating factor 1 (Homo sapiens) (UniProt O14727)
Assay: inhibitors of human Apaf-1 apoptosome, primary screen, biochemical, DEVD-Rh110 fluorescence, uHTS (AID 489030);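 further: plate controls were DMSO wells for no effect and DEVD-CHO caspase inhibitor wells for full effect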
Settings: reconstituted apoptosome caspase-3 activity, at 20 µM, active compounds read high

| SMILES | inhibition |
| --- | --- |
| Cc1cc(C)cc(OP(C)(=O)Nc2ccccn2)c1 (stereo not given) | inactive: -1.83% |
| CP(=O)(Nc1cccc(Br)c1)Oc1ccccc1 (stereo not given) | inactive: -2.92% |
| Cc1ccc(C)c(NP(C)(=O)Oc2ccccc2)c1 (stereo not given) | inactive: 7.56% |
| COc1ccccc1OP(C)(=O)Nc1cccc(Br)c1 (stereo not given) | inactive: 3.48% |
| Cc1cc(C)cc(OP(C)(=O)Nc2ccc(C)cc2C)c1 (stereo not given) | inactive: -6.08% |
| CCOC(=O)c1ccc(NP(C)(=O)Oc2cc(C)cc(C)c2)cc1 (stereo not given) | inactive: -0.64% |
| CC1=NCCc2c1[nH]c1ccccc21.O=[N+]([O-])c1cc([N+](=O)[O-])c(O)c([N+](=O)[O-])c1 | inactive: 4.61% |
| O=C(O)c1cccc(Nc2c([N+](=O)[O-])cc([N+](=O)[O-])cc2[N+](=O)[O-])c1 | inactive: 13.8% |
| CN1CCCCC1COC(=O)C1(O)c2ccccc2CCc2ccccc21 (stereo not given) | inactive: -0.974% |
| COc1ccccc1OP(C)(=O)Nc1c(C)cccc1C (stereo not given) | inactive: 4.24% |
| CCCOc1ccc(NP(C)(=O)Oc2ccc(Cl)cc2)cc1 (stereo not given) | inactive: 13.9% |
| CP(=O)(Nc1ccc(SC(F)(F)F)cc1)Oc1ccccc1 (stereo not given) | inactive: 4.91% |
| CCOC(=O)C(CC)C1=NC(C)(C)Cc2ccccc21.O=[N+]([O-])c1cc([N+](=O)[O-])c(O)c([N+](=O)[O-])c1 (stereo not given) | inactive: -14.5% |
| CC1=C2N=C(C=C3N=C(C(C)=C4[N-][C@@](C)([C@@H]5N=C1[C@](C)(CCC(=O)NC[C@@H](C)OP(=O)([O-])O[C@H]1[C@@H](O)[C@@H](n6cnc7cc(C)c(C)cc76)O[C@@H]1CO)[C@H]5CC(N)=O)[C@@](C)(CC(N)=O)[C@@H]4CCC(N)=O)[C@@](C)(CC(N)=O)[C@@H]3CCC(N)=O)C(C)(C)[C@@H]2CCC(N)=O.[C-]#N.[Co+3] | active: 99.1% |
| O=[N+]([O-])c1cc([N+](=O)[O-])c(Nc2nnnn2CCO)c([N+](=O)[O-])c1 | inactive: -0.183% |
| O=[N+]([O-])c1cc([N+](=O)[O-])c(-c2cnn(-c3ccccc3)c2)c([N+](=O)[O-])c1 | inactive: -6.66% |
| Cc1nc2ccc3ccccc3c2s1.O=[N+]([O-])c1cc([N+](=O)[O-])c(O)c([N+](=O)[O-])c1 | inactive: 15.4% |
| O=[N+]([O-])c1cc([N+](=O)[O-])c(-n2nnc3ccccc32)c([N+](=O)[O-])c1 | inactive: 10.6% |
| CCOP(C)(=S)SCC(=O)NC(C)C(=O)O (stereo not given) | inactive: -5.47% |
| O=[N+]([O-])c1cc([N+](=O)[O-])c(O)c([N+](=O)[O-])c1.c1ccc(Oc2ccncc2)cc1 | inactive: 0.656% |
